One data set is described as follows: Human plasma stability. Conditions: after 18 h incubation. The method, then: (§1) Pre-clinical profiling of the compounds was performed at AstraZeneca R&D in Gothenburg, Sweden, applying an integrated panel of assays referred to as the DMPK Wave 1 panel.
Data set [1] can be described thus: Human liver microsome intrinsic clearance. To be noted: human liver microsomes. The method, then: as §1
On the technique in general: Liver microsomes are vesicles of endoplasmic reticulum, rich in cytochrome P450 enzymes.

Protein sequences, listed by entry. Tags and fused reporters are not part of them. Residues count along the entry.
UniProt A0A8C2M8D5, 1-1025: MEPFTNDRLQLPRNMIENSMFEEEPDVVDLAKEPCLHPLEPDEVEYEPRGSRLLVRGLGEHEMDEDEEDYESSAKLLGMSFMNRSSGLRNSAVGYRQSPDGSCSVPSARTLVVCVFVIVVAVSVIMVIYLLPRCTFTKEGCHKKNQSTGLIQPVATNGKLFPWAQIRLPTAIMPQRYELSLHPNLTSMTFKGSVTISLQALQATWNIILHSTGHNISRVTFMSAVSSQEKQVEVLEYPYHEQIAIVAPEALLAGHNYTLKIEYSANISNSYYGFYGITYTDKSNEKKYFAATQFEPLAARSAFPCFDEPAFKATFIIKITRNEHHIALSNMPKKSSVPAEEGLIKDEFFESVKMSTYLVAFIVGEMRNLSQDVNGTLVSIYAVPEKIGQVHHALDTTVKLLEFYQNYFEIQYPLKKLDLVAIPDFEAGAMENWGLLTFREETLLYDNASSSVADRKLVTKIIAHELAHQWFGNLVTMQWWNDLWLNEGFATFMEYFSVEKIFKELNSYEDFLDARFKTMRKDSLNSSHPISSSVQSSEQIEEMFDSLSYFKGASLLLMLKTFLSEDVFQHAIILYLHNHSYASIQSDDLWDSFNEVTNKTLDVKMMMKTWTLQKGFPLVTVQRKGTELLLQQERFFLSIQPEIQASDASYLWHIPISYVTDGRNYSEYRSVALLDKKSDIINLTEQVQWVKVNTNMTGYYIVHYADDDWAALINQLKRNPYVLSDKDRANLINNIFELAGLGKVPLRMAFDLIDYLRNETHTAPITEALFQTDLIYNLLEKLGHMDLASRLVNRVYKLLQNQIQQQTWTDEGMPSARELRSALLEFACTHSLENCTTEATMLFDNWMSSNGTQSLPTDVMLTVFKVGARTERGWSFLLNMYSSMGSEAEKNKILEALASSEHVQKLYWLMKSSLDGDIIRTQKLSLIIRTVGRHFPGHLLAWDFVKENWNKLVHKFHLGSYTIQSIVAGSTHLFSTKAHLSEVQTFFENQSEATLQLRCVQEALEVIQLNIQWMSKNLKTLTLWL
UniProt P15144, whole entry: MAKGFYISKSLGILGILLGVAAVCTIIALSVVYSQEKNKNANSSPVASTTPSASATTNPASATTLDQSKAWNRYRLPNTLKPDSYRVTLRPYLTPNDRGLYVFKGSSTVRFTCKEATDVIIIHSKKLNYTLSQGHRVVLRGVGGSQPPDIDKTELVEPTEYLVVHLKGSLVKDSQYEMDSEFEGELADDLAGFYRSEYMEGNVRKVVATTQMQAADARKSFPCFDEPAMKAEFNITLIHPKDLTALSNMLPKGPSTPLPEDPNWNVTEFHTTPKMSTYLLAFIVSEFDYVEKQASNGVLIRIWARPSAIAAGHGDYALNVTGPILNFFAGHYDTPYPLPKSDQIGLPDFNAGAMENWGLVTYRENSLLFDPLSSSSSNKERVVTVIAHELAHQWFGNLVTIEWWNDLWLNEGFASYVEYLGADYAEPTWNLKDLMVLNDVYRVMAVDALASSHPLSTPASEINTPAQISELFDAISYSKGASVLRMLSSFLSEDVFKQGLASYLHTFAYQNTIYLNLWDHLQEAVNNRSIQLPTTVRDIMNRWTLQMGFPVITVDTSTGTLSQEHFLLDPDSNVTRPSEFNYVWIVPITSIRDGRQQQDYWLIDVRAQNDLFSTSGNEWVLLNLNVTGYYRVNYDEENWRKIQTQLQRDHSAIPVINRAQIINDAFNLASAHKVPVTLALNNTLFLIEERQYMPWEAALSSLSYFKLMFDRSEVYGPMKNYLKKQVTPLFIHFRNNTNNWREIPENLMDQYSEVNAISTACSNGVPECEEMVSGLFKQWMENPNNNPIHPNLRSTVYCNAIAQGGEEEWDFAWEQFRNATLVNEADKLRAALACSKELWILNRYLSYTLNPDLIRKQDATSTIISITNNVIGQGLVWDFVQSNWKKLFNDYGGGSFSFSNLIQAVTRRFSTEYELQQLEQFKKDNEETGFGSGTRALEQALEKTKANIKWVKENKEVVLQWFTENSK
UniProt Q9UIQ6, whole entry: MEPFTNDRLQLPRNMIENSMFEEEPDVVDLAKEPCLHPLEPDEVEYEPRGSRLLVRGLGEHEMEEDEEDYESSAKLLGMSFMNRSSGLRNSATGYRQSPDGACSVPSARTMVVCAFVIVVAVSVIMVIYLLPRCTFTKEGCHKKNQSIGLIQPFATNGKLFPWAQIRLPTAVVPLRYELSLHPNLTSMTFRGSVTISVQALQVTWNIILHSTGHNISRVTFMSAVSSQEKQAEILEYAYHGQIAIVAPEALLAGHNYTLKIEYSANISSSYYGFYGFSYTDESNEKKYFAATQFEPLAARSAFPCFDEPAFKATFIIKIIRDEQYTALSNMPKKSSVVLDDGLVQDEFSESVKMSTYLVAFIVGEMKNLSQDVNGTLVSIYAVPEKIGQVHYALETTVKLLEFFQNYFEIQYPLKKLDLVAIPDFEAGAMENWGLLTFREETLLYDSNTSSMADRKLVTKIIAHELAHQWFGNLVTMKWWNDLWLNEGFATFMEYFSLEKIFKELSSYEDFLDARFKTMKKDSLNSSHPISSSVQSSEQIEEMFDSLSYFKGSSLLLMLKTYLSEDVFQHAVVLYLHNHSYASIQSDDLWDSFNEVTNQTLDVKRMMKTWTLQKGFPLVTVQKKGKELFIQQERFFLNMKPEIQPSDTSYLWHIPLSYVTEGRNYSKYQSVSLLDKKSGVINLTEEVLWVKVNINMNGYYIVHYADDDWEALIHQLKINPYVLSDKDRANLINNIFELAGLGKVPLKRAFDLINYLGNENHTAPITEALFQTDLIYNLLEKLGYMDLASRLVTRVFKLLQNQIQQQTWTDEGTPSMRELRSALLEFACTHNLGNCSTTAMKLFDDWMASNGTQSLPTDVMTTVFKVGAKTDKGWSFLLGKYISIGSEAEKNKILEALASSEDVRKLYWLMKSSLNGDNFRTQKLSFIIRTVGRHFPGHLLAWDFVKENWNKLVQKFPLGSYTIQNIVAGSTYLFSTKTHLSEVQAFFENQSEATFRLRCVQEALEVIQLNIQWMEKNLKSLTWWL

Data set [2] in a line: Rat hepatocytes intrinsic clearance. The method, then: as §1
The next data set concerns the target CHO cells' IRAP (Cricetulus griseus, UniProt A0A8C2M8D5). Nature of the data set: IRAP inhibition, concentration-response on membrane preparations from CHO cells. The format is biochemical, Chinese hamster. To be noted: for pIC50: mean ± SD (n test occasions). The method, then:
Membrane preparations from frozen CHO cells and HEK293T cells with overexpressed IRAP and APN were prepared and handled as previously described. Details for the assay used to evaluate the inhibitory activity of the compounds have already been published.

In data set [3] the target is human aminopeptidase N (APN) (Homo sapiens, UniProt P15144). Nature of the data set: Inhibition of human aminopeptidase N overexpressed in HEK293 cells. How it is done: (§2) Human IRAP and APN were overexpressed, as previously described.
(§3) Membrane preparations from frozen CHO cells and HEK293T cells with overexpressed IRAP and APN were prepared and handled as previously described.
(§4) Details for the assay used to evaluate the inhibitory activity of the compounds have already been published.

In the next data set the target is human IRAP (Homo sapiens, UniProt Q9UIQ6). Nature of the data set: Inhibition of human membrane-bound IRAP overexpressed in HEK293 cells (hIRAP). Conditions: for IC50: read-out: hIRAP IC50. The method, then: as §2, §3, §4
A short description of data set [4]: LogD7.4 (DMPK Wave 1 panel). To be noted: pH 7.4; average ± SD of three test occasions. How it is done: as §1
Data set [5] is described as follows: Dried DMSO solubility in aqueous phosphate buffer pH 7.4. To be noted: aqueous phosphate buffer (PBS) at pH 7.4. How it is done: as §1
[6] abbreviates: Table 2, synthesized and resynthesized analogs, CHO cells' IRAP, highest concentration tested 125 µM.
[7] abbreviates: Table 2, synthesized and resynthesized analogs, CHO cells' IRAP.
Setting [8] is: Table 4, IRAP from Chinese Hamster Ovary Cells.
[9] abbreviates: read-out: CHO IRAP IC50, Table 4, IRAP from Chinese Hamster Ovary Cells.

This is an account of results in PMC10931632, “Inhibition of Insulin-Regulated Aminopeptidase by Imidazo [1,5-α]pyridines—Synthesis and Evaluation” (International Journal of Molecular Sciences, 2024).

Each structure is given as a SMILES string. Read-outs that look alike come from different tables or passages of the source. Marks after values point to notes of the source that are not given here.

Broadly, the IC50 is the midpoint of a concentration-inhibition curve. A word on the pIC50: it is the IC50 on a negative log10 scale, so that one unit is a factor of ten. The low end stands for a large IC50, the high end for a small IC50.

Regarding `COc1ccccc1-c1nc(C2CCCN2C(=O)N[C@@H](C)c2ccccc2)n2ccccc12` (single isomer, unassigned) [6a_dia2], in the data set “Human plasma stability”, the “Plasma Stab” value is given as 104 ± 3 % compound remaining. Moreover, in data set [1], the “HLM Clint” value is >300 ^[h] µL/min/mg and the HLM t ½ was less than 2.3 min. In data set [2], the “Rat hep. Clint” value is >300 ^[h] µL/min/10^6 cells and the Rat hep. t ½ was less than 2.3 min. Also, the “fold more potent than the less active diastereomer 6a_dia1” value at CHO cells' IRAP (CHO cells' IRAP) came to 15 fold. Further, the IC50 against CHO cells' IRAP (setting [6]) came out at 1 µM. At CHO cells' IRAP (setting [7]), the pIC50 was 6 ). Further, the “CHO IRAP pIC50” value at CHO cells' IRAP (setting [8]) is given as 6.0 ± 0.1. Moreover, on CHO cells' IRAP (setting [9]), the IC50 was 1 µM. Also, the “APN IC50 (µM)/pIC50” value in data set [3] was “inactive (1)”. At human IRAP, the “hIRAP pIC50” value was 6.0 and the IC50 came to 1 µM. This compound also registered a LogD7.4 in data set [4] of 2.6. In addition, the “Sol. (dried DMSO solubility)” value in data set [5] was 76 ± 14 ^[g] µM.
`COc1ccccc1-c1nc(C2CCCN2C(=O)N[C@@H](C)c2ccccc2)n2ccccc12` (single isomer, unassigned) [6a_dia1]: the “Plasma Stab” value in the data set “Human plasma stability” is on record as 102 ± 5 % compound remaining. In data set [1], the “HLM Clint” value is >300 ^[h] µL/min/mg and the HLM t ½ is less than 2.3 min. Besides, in data set [2], the “Rat hep. Clint” value was >300 ^[h] µL/min/10^6 cells and the Rat hep. t ½ was less than 2.3 min. Also, at CHO cells' IRAP (setting [6]), the IC50 worked out at 16 µM. Moreover, at CHO cells' IRAP (setting [7]), the pIC50 was 4.8 ). Besides, at CHO cells' IRAP (setting [8]), the “CHO IRAP pIC50” value was 4.8 ± 0.2. Besides, the IC50 at CHO cells' IRAP (setting [9]) was determined as 16 µM. At human IRAP, the “hIRAP pIC50” value is 5.2 and the IC50 amounted to 6.3 µM. The LogD7.4 in data set [4] came to 2.8. Further, in data set [5], the “Sol. (dried DMSO solubility)” value was 40–124 ^[f] µM.
